In PubChem BioAssay AID853 (Columbia University Molecular Screening Center, 2007):
The entries are a selection whose mix differs from that of the whole data set. Calls of active or inactive are those of the source.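 The calls were made as follows: active = inhibition of aggregate fluorescence above about 70%, also judged a hit by eye on the cell image (limit read from the data, passing the limit was not always enough); inconclusive = no rule stated for this call; inactive = not judged a hit on image review.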

Test: clearance of mutant huntingtin inclusions, primary screen, imaging, HeLa Exon1htt(103Q)mCFP, confocal imaging (AID 853);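 also: cells exposed to compound for three days before fixation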
Details: aggregate imaging, at 1.5 µM, active compounds read high, zero = plate's median compound well

Row | SMILES | inhibition
1 | COc1ccc(NC2CCN(CCc3ccccc3)CC2)c(OC)c1 | inactive: -21.5%
2 | N#CC1(Nc2ccccc2)CCN(CCc2ccccc2)CC1 | inactive: 11.3%
